# Assay outcomes as filed in PubChem.
# Shown are actives, neighbours in structure and some others; about 1.3% of the full set was active somewhere.
# EWS-Fli block – blocks EWS/Fli oncoprotein-driven transcription; A673 NR0B1-luciferase reporter, viability-normalised; inhibition, % at 12.6 µM; 350,000 compounds, 0.67% hits; AID 651661;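 active = mean inhibition of at least 50% after viability correction, with every replicate also passing that limit; inconclusive = mean reaches 50% but only one of two replicates passes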;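 note: firefly luciferase signal divided by Alamar Blue viability fluorescence both relative to DMSO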
# F508del corr – correctors of CFTR F508del function in bronchial epithelial cells. CFBE cells, YFP halide quenching; stimulated with forskolin plus potentiator P3; % fluorescence drop versus neutral controls. activity (quench increase), % at 7.58 µM. 350,000 compounds, 0.36% hits. AID 720511;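 active = mean added fluorescence quench of at least 8% versus neutral control, with both replicates also reaching 8%; inconclusive = only one of the mean or replicate conditions met; inactive = mean below 8% and not both replicates reaching 8%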;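 note: cells transiently co-express mutant CFTR-F508del with the halide-sensitive YFP; corrector assay measuring rescue of mutant channel to the surface after 24 h compound exposure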
# miR-122 sensor – blocks miR-122 activity in Huh7 sensor cells; activation (reporter increase), % at 12.5 µM; 340,000 compounds, 0.3% hits; Huh7 miR-122 Renilla luciferase sensor, 48 h; neutral wells = 0, positive control = 100;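 active = mean replicate activation score at least 90 and every replicate individually at or above 90; inconclusive = only one of the two criteria met; inactive = neither criterion met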;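 note: higher luciferase means less miR-122 activity so hits act as miR-122 inhibitors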
# LGR2 inh – inhibitors of bursicon-induced Drosophila LGR2 receptor cAMP signaling; HEK293 LGR2, CRE-luciferase, bursicon-stimulated, 4 h; inhibition, % at 9.99 µM; 380,000 compounds, 0.35% hits; AID 720647;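 active = drop in luminescence signal, shown as inhibition above about 50% in the replicate tests, limit read from the data, passing the limit was not always enough; inconclusive = probably only some replicates passing the limit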;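 note: agonist challenge used bursicon conditioned medium at about half maximal strength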
# UUG fidelity – modulators of yeast start codon fidelity, primary screen, whole organism, S. cerevisiae, single point, plate reader; activity score, % at 18.7 µM; actives 0.13% (n = 350,000); S. cerevisiae UUG-firefly luciferase reporter, luminescence/redox ratio;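 active = replicate mean at a twofold rise or more, about +100% in these data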;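 also: firefly luciferase made from a UUG start codon reports start codon fidelity; reporter light over untreated wells divided by growth signal over untreated wells; some hits fall short of that in this replicate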
# PglD inh – blocks C. jejuni PglD acetyltransferase activity | purified PglD enzyme, DTNB colorimetric CoA detection | inhibition, % at 12.5 µM | 360,000 compounds, 0.098% hits; in the data active = inhibition above about 16%, passing the limit was not always enough; inconclusive = no clear call, values can overlap the other calls
# * = called active by the depositor; u = inconclusive; x = no result; [ ] = remark or other dose.
item	Structure	EWS-Fli block	F508del corr	miR-122 sensor	LGR2 inh	UUG fidelity	PglD inh
1	CCCCCCN(C(=O)CCCCCN1C(=O)NC(c2cccc([N+](=O)[O-])c2)C(C(=O)OCc2ccccc2)=C1C)C(C(=O)NCCCC)c1ccc(OCC(=O)OC)c(C(=O)OC)c1 (configuration not stated)	69*	2	x	-13	x	x
2	CCCCCCN(C(=O)CCCCCN1C(=O)NC(c2ccc([N+](=O)[O-])cc2)C(C(=O)OCc2ccccc2)=C1C)C(C(=O)NCCCC)c1ccc(OCC(=O)OC)c(C(=O)OC)c1 (configuration not stated)	u	1	x	4	x	x
3	CCOC(=O)c1c(C)[nH]c(C)c1C(=O)COC(=O)c1ccc([N+](=O)[O-])s1	-3	9.3*	x	0	4	1
4	CCOC(=O)c1c(C)[nH]c(C)c1C(=O)COC(=O)/C=C/c1ccccc1[N+](=O)[O-]	21	-4	5	-13	0	-3
5	CO[C@H]1CN(C)C(=O)c2cc(NC(=O)C3CC3)ccc2OC[C@H](C)N(Cc2ccncc2)C[C@H]1C	-2	0	-5[16.7 µM]	-15	-10	0
6	CCCC#Cc1ccc2c(c1)[C@H]1[C@H](CCN1Cc1ccccc1F)[C@@H](CO)N2	x	-2	x	3	x	x
7	O=S(=O)(Oc1ccccc1)c1ccc(Cl)c(Cl)c1	-25	-1	x	-19	16	4
8	O=[N+]([O-])c1cc(S(=O)(=O)Oc2ccccc2)ccc1Cl	22	-5	x	68*	x	x
9	CO[C@@H](C(=O)N(C)C[C@@H]1OCc2ccccc2-c2c(n(C)c3ccccc23)C(=O)N([C@H](C)CO)C[C@H]1C)c1ccccc1	0	0	x	0	x	x
10	C[C@@H]1CN([C@H](C)CO)C(=O)CCCn2cc(nn2)CO[C@@H]1CN(C)C(=O)c1ccccc1	-3	2	0[16.7 µM]	x	x	x
11	COc1ccc(-c2[nH]nc3nc(N4CCN(C(=O)c5ccoc5)CC4)cc(C(F)(F)F)c23)cc1	55*	-2	11	-7	-9	-1
12	Cc1ccc(C(C)C)c(OCC(=O)Nc2ccc3c(c2)nc(CN2CCCC2)n3C)c1	x	x	1	8	x	x
13	COc1ccc2cc1Oc1ccc(cc1)C[C@H]1c3cc(c(OC)cc3CCN1C)Oc1c(OC)c(OC)cc3c1[C@H](C2)N(C)CC3	57*	0	0	x	2	-1
14	COc1ccc2cc1Oc1ccc(cc1)C[C@H]1c3c(cc4c(c3Oc3cc5c(cc3OC)CCN(C)[C@@H]5C2)OCO4)CCN1C	16	6	-6	-5	-27	0
15	O=C(NNC(=O)c1ccncc1)Nc1ccc(Cl)cc1	-17	8.2*	x	-18	x	x

item	Structure	EWS-Fli block	F508del corr	miR-122 sensor	LGR2 inh	UUG fidelity	PglD inh
16	O=C(NNC(=O)c1ccncc1)Nc1ccccc1	0	1	-1	-5	-8	-4
17	COc1cccc(C#Cc2ccc([C@H]3[C@H](C#N)N(C(=O)C4CC4)[C@H]3CO)cc2)c1	-11	-6	x	20	-5	-3
18	CCNC(=S)NNC(=O)C1CCCCC1	x	x	140*	x	-9	-3
19	CCNC(=S)N1CCC(NC(=O)C2CCCCC2)CC1	x	x	-1	x	-19	-1
20	O=C(N/N=C/c1ccco1)c1cccc([N+](=O)[O-])c1	-7	x	x	x	x	x
21	O=C(N/N=C/c1ccco1)c1cc([N+](=O)[O-])cc([N+](=O)[O-])c1	82*	x	x	21	x	x
22	CC(=O)C1=C(O)C(=O)N(Cc2ccccc2)C1c1cccc([N+](=O)[O-])c1 (configuration not stated)	6	5	-2	-16	-2	1
23	COc1cc(S(=O)(=O)Nc2ccccc2N2CCCCC2)ccc1NC(C)=O	0	6	111*	29	-7	2
24	COc1ccccc1NS(=O)(=O)c1cc(NC(=O)c2sccc2C)ccc1N1CCOCC1	-2	-1	84	7	-15	1
25	COc1ccc(NS(=O)(=O)c2cc(NC(=O)c3sccc3C)ccc2N2CCOCC2)cc1	u	6	188*	-2	-24	0
26	COc1ccccc1NS(=O)(=O)c1cc(NC(=O)c2sccc2C)ccc1N1CCCC1	x	x	173*	-10	x	x
27	COc1ccccc1NS(=O)(=O)c1cc(NC(=O)Nc2ccccc2)ccc1N1CCCCC1	11	0	289*	2	-2	2
28	COC(=O)c1ccc(NC(=O)c2cn(-c3ccccc3)nc2-c2ccncc2)cc1	x	x	10	x	-14	8
29	N#Cc1cc(Sc2ccccn2)c([N+](=O)[O-])cc1C#N	12	13*	-4	3	-21	4
30	N#Cc1cc(Sc2ccccn2)c(Sc2ccccn2)cc1C#N	x	x	1	-6	-16	1

item	Structure	EWS-Fli block	F508del corr	miR-122 sensor	LGR2 inh	UUG fidelity	PglD inh
31	Cc1cnc(NC(=O)CCc2ccccc2)s1	18	8.9*	22	-53	9	7
32	Brc1cc2c(cc1Br)OCCOCCOCCO2	-1	-2	7	4	-21	-1
33	Cc1cc(C)c(C#N)c(SCc2nnc(-c3ccccc3)o2)n1	78*	x	-5	77*	-14	3
34	Cc1ccc(C#N)c(SCc2nnc(-c3ccc(Cl)cc3)o2)n1	x	x	2	66*	-11	-3
35	Cc1cc(C)n(C(=O)CCCCCC(=O)n2nc(C)cc2C)n1	x	x	6	x	0	4
36	C[C@H](CO)N1C[C@H](C)[C@H](CN(C)Cc2cncnc2)Oc2ncc(C#C[C@@H](C)O)cc2C1=O	-5	1	-4[16.7 µM]	12	1	0
37	CCN1CCN(CCCNC(=O)c2ccc3c(c2)NC(=O)/C(=C\c2cccc(C)c2)S3)CC1	60*	4	3	17	-13	1
38	COc1ccc(S(=O)(=O)N2CCOC2CNC(=O)C(=O)NCCc2ccccc2)cc1C (configuration not stated)	3	-2	-8	-14	5	-4
39	CN(C)Cc1n[nH]c(=O)c2ccccc12	8	-1	x	7	x	x
40	COc1cc(N/N=C/c2ccc(N(C)C)cc2)ncn1	-3	-5	7	74*	-46	-4
41	COc1cc(NS(=O)(=O)c2ccc3c(c2)C(C)(C)C(=O)N3C)cc(OC)c1	7	-1	98*	-22	-1	2
42	COc1ccc(CNS(=O)(=O)c2ccc3c(c2)C(C)(C)C(=O)N3C)cc1	7	-1	4	11	-9	-7
43	Cc1cc(C)c(C(=O)/C=C/c2ccc(C(C)C)cc2)c(=O)[nH]1	-3	-4	1	80*	-9	7
44	COc1ccc(C(=O)NCc2cc(C)nc3ccccc23)cc1	53*	2	x	38	x	x
45	Cc1nc2sc(-c3ccccc3)cc2c(=O)n1N	69*	2	2	81*	-37	4

# Record cards (already shown). Values in the order: EWS-Fli block, F508del corr, miR-122 sensor, LGR2 inh, UUG fidelity, PglD inh
# COc1ccc(S(=O)(=O)N2CCOC2CNC(=O)C(=O)NCCc2ccccc2)cc1C (configuration not stated) is listed with 3, -2, -8, -14, 5, -4
# CCN1CCN(CCCNC(=O)c2ccc3c(c2)NC(=O)/C(=C\c2cccc(C)c2)S3)CC1 is listed with 60*, 4, 3, 17, -13, 1
# COc1ccc(-c2[nH]nc3nc(N4CCN(C(=O)c5ccoc5)CC4)cc(C(F)(F)F)c23)cc1 is listed with 55*, -2, 11, -7, -9, -1
# O=C(NNC(=O)c1ccncc1)Nc1ccc(Cl)cc1 is listed with -17, 8.2*, x, -18, x, x
# CCNC(=S)N1CCC(NC(=O)C2CCCCC2)CC1 is listed with x, x, -1, x, -19, -1

# Continued.
item	Structure	EWS-Fli block	F508del corr	miR-122 sensor	LGR2 inh	UUG fidelity	PglD inh
46	O=C(C[C@H]1CC[C@@H]2[C@H](COC[C@H](O)CN2S(=O)(=O)c2ccccc2)O1)Nc1ccccc1	2	5	1[16.7 µM]	6	x	-1
47	Cc1ccc(C)c(CSc2nnc(-c3cccnc3)o2)c1	x	x	356*	x	-9	-1
48	Fc1ccccc1CSc1nnc(-c2cccnc2)o1	-83	2	x	-19	x	x
49	O=C(O)Cn1ncc2ccccc2c1=O	7	-1	x	13	x	x
